Where “and” joins values, the source holds several entries; their conditions need not be identical. Identical values can stand only once.

The values below come from patent US11286274B2, “Nicotinamide riboside derivatives and their uses” (MitoPower LLC, priority 2017, dated 2022).

Test [1] has as its system Jurkat cells. The test is described as follows: MNNG-induced cytotoxicity / cytoprotection (CellTiter-Blue Cell Viability Assay), Jurkat cells. In kind it is cell-based. The conditions noted are these: no test compound. (Resazurin is reduced to fluorescent resorufin, in cell work by metabolically active cells.)
For test [2], the system named is Jurkat cells. The test is described as follows: Total cellular NAD+ level after MNNG-induced depletion (NAD/NADH Glo Assay), Jurkat cells. The settings on record: no test compound. In kind it is cell-based.

For methynitronitrosoguanidine, the “cytotoxicity at 4 hr” value in the test with Jurkat cells [1] (75 μM MNNG for 30 min) is reported as 87%; with Jurkat cells [1] (150 μM MNNG for 30 min), 63.2%; in the test on Jurkat cells [1] (200 μM MNNG for 30 min) it was 78%. Besides, the “depletion of NAD+ level at 4 hr” value was 92.1% in the test on Jurkat cells [2] (75 μM MNNG for 30 min); 76.9% and 94% in the test on Jurkat cells [2] (100 μM MNNG for 30 min).
